According to patent US20260275279A1, “THYROCYTES AND USES THEREOF” (LifeNet Health, priority 2023, published 2026):

System: 3D thyrocyte cell culture
Conditions: 1.0×10^−10 to 1.0×10^−4 M

## Cn1cc[nH]c1=S [methimazole, Methimazole]
  toxicity of inhibitor concentrations to the cells: not toxic
